The text below walks through data of ChEMBL document CHEMBL1141614, “Selective COX-2 inhibitors. Part 2: synthesis and biological evaluation of 4-benzylideneamino- and 4-phenyliminomethyl-benzenesulfonamides” (Bioorg Med Chem, 2008).

By UniProt entry, the sequences of proteins in these tests, tags left out.
UniProt P23219, whole entry: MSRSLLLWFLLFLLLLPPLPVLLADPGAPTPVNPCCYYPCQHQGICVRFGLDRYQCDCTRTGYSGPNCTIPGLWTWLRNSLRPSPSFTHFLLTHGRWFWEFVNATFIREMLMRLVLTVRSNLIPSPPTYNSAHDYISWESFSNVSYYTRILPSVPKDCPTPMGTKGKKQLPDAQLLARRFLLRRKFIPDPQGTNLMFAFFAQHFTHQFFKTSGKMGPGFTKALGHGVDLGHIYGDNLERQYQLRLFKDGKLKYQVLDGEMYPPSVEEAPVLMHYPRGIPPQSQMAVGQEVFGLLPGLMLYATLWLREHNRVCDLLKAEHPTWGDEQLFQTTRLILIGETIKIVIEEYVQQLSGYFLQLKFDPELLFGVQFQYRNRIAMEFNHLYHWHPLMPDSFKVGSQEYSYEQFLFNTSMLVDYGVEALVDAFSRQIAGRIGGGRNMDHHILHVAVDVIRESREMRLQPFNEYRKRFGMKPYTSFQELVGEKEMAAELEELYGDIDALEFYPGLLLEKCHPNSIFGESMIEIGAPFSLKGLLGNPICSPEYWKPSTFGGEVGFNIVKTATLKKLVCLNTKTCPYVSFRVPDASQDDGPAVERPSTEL

SMILES strings stand for the structures. pIC50: −log10 of the molar value.

The assay deals with Prostaglandin G/H synthase 1 (Homo sapiens, UniProt P23219). Type of assay: tissue-based, Blood.

Compound `Oc1ccc(/C=C/c2cc(O)cc(O)c2)cc1` [RESVERATROL] gave a negative logarithm of the IC50 (pIC50) of 5.39.
